The record followed here is patent publication US9867884B2, “Vascular delivery systems” (Ben-Gurion University of the Negev Research and Development …, priority 2008, dated 2018).

The target of the experiment is T1, E-selectin (Homo sapiens, UniProt P16581).
T1 sequence (P16581 22-556 limits assumed): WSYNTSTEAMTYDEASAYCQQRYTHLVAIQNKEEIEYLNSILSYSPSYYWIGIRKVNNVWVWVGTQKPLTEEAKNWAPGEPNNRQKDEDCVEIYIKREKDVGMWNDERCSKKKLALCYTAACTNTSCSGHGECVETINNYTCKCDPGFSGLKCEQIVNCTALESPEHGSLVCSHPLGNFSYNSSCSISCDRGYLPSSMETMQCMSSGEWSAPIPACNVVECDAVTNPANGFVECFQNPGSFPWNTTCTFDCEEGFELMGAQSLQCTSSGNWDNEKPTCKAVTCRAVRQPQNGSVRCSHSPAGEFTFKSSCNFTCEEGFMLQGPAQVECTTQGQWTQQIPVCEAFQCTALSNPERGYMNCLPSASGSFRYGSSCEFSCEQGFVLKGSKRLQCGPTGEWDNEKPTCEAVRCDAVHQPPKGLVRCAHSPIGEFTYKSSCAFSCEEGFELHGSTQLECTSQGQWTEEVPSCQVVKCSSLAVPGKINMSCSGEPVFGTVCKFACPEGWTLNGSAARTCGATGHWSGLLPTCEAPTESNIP
The experiment in a line: Inhibition of HL-60 adhesion to recombinant soluble E-selectin coated plates (competitive inhibition assay). The conditions noted are these: monomers, HL-60 adhesion to immobilized E-selectin, 15 min (FIG. 3A); read-out: Inhibition of 50% binding (IC50) value. The protocol:
FIG. 3A-C depicts percentage of inhibition of HL-60 adhesion to recombinant soluble E-selectin coated plates is determined using ELISA plate reader, as described previously (Ramphal J Y, Hiroshige M, Lou B, Gaudino J J, Hayashi M, Chen S M, et al. Ligand interactions with Eselectin. Identification of a new binding site for recognition of N-acyl aromatic glucosamine substituents of sialyl Lewis X. J Med Chem 1996; 39(7):1357-60.). A plate with immobilized Eselectin is exposed to HL-60 cells (which express the natural sLe^x ligand on the cell membrane) in the presence and absence of P-sLe^x, P-QA and pHPMA for 15 min at different concentrations.
The percentage of bound HL-60 cells is determined with o-phenylenediamine as a substrate for myeloperoxidases released from lysed cells. […]
Affinity of Esbp and P-Esbp to E-selectin was evaluated by a competitive inhibition assay of HL-60 to immobilized E-selectin. […]
The percentage of inhibition of HL-60 adhesion to recombinant soluble E-selectin coated plates is studied using ELISA plate reader, as described previously (Ramphal J Y, Hiroshige M, Lou B, Gaudino J J, Hayashi M, Chen S M, et al. Ligand interactions with E-selectin. Identification of a new binding site for recognition of N-acyl aromatic glucosamine substituents of sialyl Lewis X. J Med Chem 1996; 39(7):1357-60.). […]

Usually IC50 stands for the concentration needed to halve the response being measured. Consider sialyl Lewis X [sLe^x], for which the concentration for half-maximal inhibition (IC50) turned out to be 1500 µM.
